Tested on: replicon cells
Assay: Cytotoxic effects in replicon cells
Type: cell-based, human
Details: alone or both in combination
Excerpt: As a model system for HCV replication there were utilized three replicon cell lines provided by Prof. R. Bartenschlager (University of Heidelberg, Germany).

## CC1=C(/C=C/C(C)=C/C=C/C(C)=C/C(=O)O)C(C)(C)CCC1 [all-trans-retinoic acid]
  severe cytotoxic effects: neither observed
